What was measured:
[1] = biological target: T1, Dual specificity tyrosine-phosphorylation-regulated kinase 1A (Homo sapiens, UniProt Q13627); conditions: sf9
[2] = biological target: T1, Dual specificity tyrosine-phosphorylation-regulated kinase 1A

COc1ccc2sc(-c3cncc(NC(C)=O)c3)nc2c1
IC50 [1]: 335 nM
IC50 [2]: 50.8 nM
